PMC8179271, “Identification of β-strand mediated protein–protein interaction inhibitors using ligand-directed fragment ligation” (Chemical Science, 2021)

The chains behind the UniProt entries cited, without tags or fusion partners. Residues count along the entry.
UniProt Q9Y566, 656-762 limits assumed: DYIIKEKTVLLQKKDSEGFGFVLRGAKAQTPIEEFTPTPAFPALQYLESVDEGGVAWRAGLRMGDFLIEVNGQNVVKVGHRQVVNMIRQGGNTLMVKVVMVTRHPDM

Molecular target: SHANK1 PDZ (Homo sapiens, UniProt Q9Y566)
Test: Fluorescence anisotropy competition assay (FITC-Ahx-TRL-COOH tracer)
Format: binding
Details: read-out: IC50 (Fig. S7-S9, S11, S12, hybrids selected for validation from single point screens); x-A001 incubated with 5 equiv aldehyde in presence of protein for 24 h, then 10 nM FITC-Ahx-TRL-COOH; 50 mM NH4Ac pH 6.5, 10 mM aniline; SHANK1 PDZ 1 M

| IC50 | Structure (SMILES) |
| --- | --- |
| 15.7 µM | CC(C)C[C@H](NC(=O)[C@H](CCCNC(=N)N)NC(=O)[C@@H](NC(=O)CCC(=O)N/N=C/c1ccccc1-c1ccccc1C(=O)O)[C@@H](C)O)C(=O)O |
| 13.9 µM | CC(C)C[C@H](NC(=O)[C@H](CCCNC(=N)N)NC(=O)[C@@H](NC(=O)CCC(=O)N/N=C/c1ccc(-c2cc(C(=O)O)ccc2Cl)o1)[C@@H](C)O)C(=O)O |
| 4.2 µM | CC(C)C[C@H](NC(=O)[C@H](CCCNC(=N)N)NC(=O)[C@@H](NC(=O)CCCC(=O)N/N=C/c1ccc(-c2cc(C(=O)O)ccc2Cl)o1)[C@@H](C)O)C(=O)O |
| 5.1 µM | Cc1cc2c(s1)c(/C=N/NC(=O)CCCC(=O)N[C@H](C(=O)N[C@@H](CCCNC(=N)N)C(=O)N[C@@H](CC(C)C)C(=O)O)[C@@H](C)O)c(C(=O)O)n2C |
| 25.3 µM | Cc1cc2c(s1)c(/C=N/NC(=O)CCC(=O)N[C@H](C(=O)N[C@@H](CCCNC(=N)N)C(=O)N[C@@H](CC(C)C)C(=O)O)[C@@H](C)O)c(C(=O)O)n2C |
| 4.8 µM | CC(C)C[C@H](NC(=O)[C@H](CCCNC(=N)N)NC(=O)[C@@H](NC(=O)CCCC(=O)N/N=C/c1ccc(C(=O)O)o1)[C@@H](C)O)C(=O)O |
| 12.5 µM | CC(C)C[C@H](NC(=O)[C@H](CCCNC(=N)N)NC(=O)[C@@H](NC(=O)CCC(=O)N/N=C/c1ccc(C(=O)O)o1)[C@@H](C)O)C(=O)O |
